Laboratory results published in ChEMBL document CHEMBL1146270, “Identification of potent and selective TACE inhibitors via the S1 pocket” (Bioorg Med Chem Lett, 2007).

Amino acid sequences for entries named in this document (tags omitted). A change or cut given only in a name is not applied to a line headed by its entry.
UniProt P78536: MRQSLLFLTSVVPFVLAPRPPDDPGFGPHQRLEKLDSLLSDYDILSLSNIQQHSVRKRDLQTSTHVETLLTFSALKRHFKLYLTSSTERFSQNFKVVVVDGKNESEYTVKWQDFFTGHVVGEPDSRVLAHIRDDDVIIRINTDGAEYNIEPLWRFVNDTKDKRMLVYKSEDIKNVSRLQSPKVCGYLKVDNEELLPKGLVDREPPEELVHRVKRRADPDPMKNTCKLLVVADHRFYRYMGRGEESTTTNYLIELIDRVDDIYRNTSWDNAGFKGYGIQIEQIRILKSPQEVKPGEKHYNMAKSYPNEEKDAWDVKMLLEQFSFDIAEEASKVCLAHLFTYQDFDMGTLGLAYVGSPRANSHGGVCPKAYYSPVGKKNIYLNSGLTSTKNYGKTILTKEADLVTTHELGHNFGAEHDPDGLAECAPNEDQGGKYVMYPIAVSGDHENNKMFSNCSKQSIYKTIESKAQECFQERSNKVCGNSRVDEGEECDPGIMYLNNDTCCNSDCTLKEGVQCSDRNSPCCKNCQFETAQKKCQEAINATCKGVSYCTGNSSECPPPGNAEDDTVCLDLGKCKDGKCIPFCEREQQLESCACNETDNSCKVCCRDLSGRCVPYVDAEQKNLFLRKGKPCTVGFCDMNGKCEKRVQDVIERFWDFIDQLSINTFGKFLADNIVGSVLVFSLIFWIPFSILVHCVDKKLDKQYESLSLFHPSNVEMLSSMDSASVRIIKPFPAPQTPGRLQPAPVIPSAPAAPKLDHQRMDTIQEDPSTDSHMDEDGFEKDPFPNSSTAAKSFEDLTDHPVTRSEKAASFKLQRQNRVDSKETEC
UniProt P14780: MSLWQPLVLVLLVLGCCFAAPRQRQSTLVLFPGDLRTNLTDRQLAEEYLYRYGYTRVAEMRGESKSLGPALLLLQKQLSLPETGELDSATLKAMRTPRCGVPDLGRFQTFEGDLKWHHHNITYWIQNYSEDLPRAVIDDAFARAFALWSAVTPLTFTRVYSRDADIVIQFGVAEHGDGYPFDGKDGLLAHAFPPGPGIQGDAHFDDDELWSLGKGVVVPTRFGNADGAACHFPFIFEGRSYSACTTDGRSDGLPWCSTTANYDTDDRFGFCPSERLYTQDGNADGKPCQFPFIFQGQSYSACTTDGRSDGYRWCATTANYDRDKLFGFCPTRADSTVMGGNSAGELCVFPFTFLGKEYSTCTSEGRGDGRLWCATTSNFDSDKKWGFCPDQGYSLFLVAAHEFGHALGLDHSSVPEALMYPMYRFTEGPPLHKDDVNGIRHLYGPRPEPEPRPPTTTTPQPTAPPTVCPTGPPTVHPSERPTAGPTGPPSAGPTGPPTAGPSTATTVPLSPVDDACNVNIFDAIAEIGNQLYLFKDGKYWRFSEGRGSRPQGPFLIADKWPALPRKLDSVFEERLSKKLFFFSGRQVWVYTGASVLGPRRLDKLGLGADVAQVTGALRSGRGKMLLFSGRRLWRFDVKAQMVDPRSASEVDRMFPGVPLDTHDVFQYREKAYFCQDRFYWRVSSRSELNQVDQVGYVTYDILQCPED

Legend:
[1] = molecular target: Disintegrin and metalloproteinase domain-containing protein 17 (Homo sapiens, UniProt P78536); experiment: Inhibition of TACE
[2] = molecular target: Matrix metalloproteinase-9 (Homo sapiens, UniProt P14780); experiment: Inhibition of MMP9
[3] = molecular target: Collagenase 3 (Homo sapiens, UniProt P45452)

SMILES: CC#CCOc1ccc(S(=O)(=O)CC2(C(=O)NO)CCN(S(=O)(=O)c3c(C)noc3C)CC2)cc1
- IC50 [1]: 2.2 nM

SMILES: CC#CCOc1ccc(S(=O)(=O)N2CCSC(C)(C)C2C(=O)NO)cc1 (stereo not drawn)
- IC50 [2]: 71 nM
- IC50 [3]: 9 nM
